What is called Ki is the dissociation constant of the complex between target and ligand, obtained from inhibition or displacement. Higher therefore signals weaker binding.

The results in this text go back to BindingDB's records for 25268943.

Assay [1] deals with Kappa-type opioid receptor (Homo sapiens, UniProt P41145). Nature of the assay: Displacement of [3H]U-69593 from human KOR expressed in HEK293 cells after 60 mins by scintillation counting analysis.
A further assay addresses Mu-type opioid receptor (Homo sapiens, UniProt P35372). Put plainly: Displacement of [3H]DAMGO from human MOR expressed in HEK293 cells after 60 mins by scintillation counting analysis. A general note: Loss of bound radioactivity is the signal in a displacement assay; it reports binding, not function.

For `N=C(N)NCC(=O)NCC1(Nc2cccc3ccccc23)CCN(Cc2ccccc2)CC1`, the Ki in assay [1] stood at 705 nM; at Mu-type opioid receptor, 2020 nM.

Take `COc1cc(NC2(CNC(=O)CNC(=N)N)CCN(Cc3ccccc3)CC2)cc(OC)c1`: the Ki in assay [1] was determined as 3680 nM; at Mu-type opioid receptor it was 688 nM.

With `N=C(N)NCCNC(=O)C1(Nc2ccccc2)CCN(Cc2ccccc2)CC1`, the inhibitory constant (Ki) in assay [1] turned out to be 224 nM; at Mu-type opioid receptor, 201 nM.

As to `N=C(N)NCC(=O)NCC1(Nc2ccccc2)CCN(Cc2ccccc2)CC1`, the Ki is 1230 nM in assay [1] and more than 5000 nM at Mu-type opioid receptor.
